Experiment: Selectivity index, ratio of IC50 for human S1P2 to IC50 for rat S1P2

Ratio IC50 | Compound
4.1 | O=C(Nc1cc(F)cc(C(F)(F)F)c1)N1CCC(O)(c2ccc(Br)cc2)CC1
4.5 | NC(=O)c1ccc(Oc2cc(NC(=O)N3CCC(O)(c4ccc(F)cc4)CC3)cc(Oc3ccc(F)cc3)c2)cc1
8.3 | CS(=O)(=O)c1ccc(Oc2cc(NC(=O)N3CCC(O)(c4ccc(F)cc4)CC3)cc(Oc3ccc(F)cc3)c2)cc1
24 | CCC(CC)CC1(O)CCN(C(=O)Nc2cc(F)cc(C(F)(F)F)c2)CC1
6.7 | NS(=O)(=O)c1ccc(Oc2cc(NC(=O)N3CCC(O)(c4ccc(F)cc4)CC3)cc(Oc3ccc(F)cc3)c2)cc1
8.6 | O=C(Nc1cc(Oc2ccncc2)cc(Oc2ccc(F)cc2)c1)N1CCC(O)(c2ccc(F)cc2)CC1
